Results: PMC11927755

System: P10636
Assay: SDS-PAGE and Western blot of heat-, SDS- and reducing condition-stable multimers; 2 μM tau in aggregation buffer (10 mM sodium Hepes, 0.1 mM EDTA, 200 mM NaCl, 5 mM DTT, pH 7.6) with 75 μM arachidonic acid (aggregated) or ethanol vehicle (unaggregated), 6 h at RT; boiled in Laemmli buffer …
Details: other: SDS-PAGE and Western blot of heat-

Row | Substance | fold increase of stable multimers on aggregation against the unaggregated sample
1 | O-GlcNAc modified hT40 (Glc hT40, 2N4R tau) | 3.8-fold increase, t = 6.530, p < 0.05 for Glc hT40
2 | unmodified hT40 (full-length tau, 2N4R isoform, 441 amino acids) | 3-fold increase, t = 6.431, p < 0.05 for unmodified hT40
